{"source": "patent US20220347323A1", "about": "“Positron Emission Tomography Guided Delivery of Mitochondral Complex I Inhibitors” (priority 2019, published 2022)", "key": {"L3161C lung tumors [1]": {"system": "L3161C lung tumors", "experiment": "18FBnTP PET of transthoracically implanted L3161C tumors in syngeneic mice", "type": "in vivo, mouse", "method": "(§1) Following resection, the tumor was minced and incubated in collagenase/dispase (Cat. #10269638001, Sigma) for 3 hr. Cells were filtered using a 70 μm strainer, centrifuged, resuspended in DMEM with 5% FBS and plated in a 6 cm dish. The following day media was changed and cells that attached were cultured. […] Two weeks after injections, mice were imaged by CT. Mice with similar sized tumors were used for ^18FBnTP imaging. For treatment studies, syngeneic mice were imaged with ^18FBnTP, and split into two groups (three groups for FIG. 3e) based on tumor maximum %ID/g, such that maximum %ID/g of tumors in both groups would be similar. Treatment was then initiated for the specified time. Mice were treated with a single dose of 0.25 mg/kg Oligomycin or 0.5 mg/kg Rotenone; both drugs were delivered by i.p. injection. For other studies mice were treated with 125 mg/kg/day phenformin or 500 mg/kg/day metformin for 5 days; both drugs were delivered by oral gavage in the morning. Following imaging, mice were euthanized and tissue was harvested. For some experiments, lungs were fixed with 10% NBF overnight; for other experiments lung tumor nodules were rapidly dissected, snap frozen in liquid nitrogen and stored in −80° C. freezer.\n(§2) In order to reduce variability between mice imaged with ^18FBnTP, maximum percent injected dose per gram (%ID/g) for each tumor was normalized to maximum %ID/g of heart as indicated in the figures. For waterfall plots in FIG. 2m and FIGS. 8e-8f, we calculated % change in the uptake of the ^18FBnTP probe post-treatment relative to pre-treatment using maximum %ID/g of the tumor that was normalized to maximum %ID/g of the heart for each mouse."}, "L3161C lung tumors [2]": {"system": "L3161C lung tumors", "experiment": "CC3 and Ki67 histology of L3161C tumors", "type": "in vivo, mouse", "conditions": "5 days treatment", "method": "as §1, with “For some experiments, lungs were fixed with 10% NBF overnight; for other experiments lung tumor nodules were rapidly dissected, snap frozen in liquid nitrogen and stored in −80° C. freezer.” left out\nAfter the fixation step in 10% neutral buffered formalin overnight, lungs were transferred to 70% ethanol and further processing and embedding was done by the TPCL at UCLA. […] Digital slides were analyzed with Definiens and QuPath software."}, "L3161C cells [3]": {"system": "L3161C cells", "experiment": "Mitochondrial membrane potential (ΔΨ) by TMRE flow cytometry, L3161C", "type": "cell-based, mouse", "method": "Experiments were conducted by analyzing TMRE fluorescence using flow cytometry. […] Cells were washed twice in phenol red free DMEM and cellular fluorescence was acquired with a BD LSRII analyzer at UCLA Flow Cytometry Core. Data was analyzed with Flowing Software."}, "L3161C cells [4]": {"system": "L3161C cells", "experiment": "Respirometry (Seahorse OCR), L3161C", "type": "cell-based, mouse", "conditions": "1 mM, 45 min", "method": "(§3) Experiments were conducted on a Seahorse XF96 Extracellular Flux Analyzer (Agilent Technologies) in order to measure oxygen consumption rate (OCR) and extracellular acidification rate (ECAR). […] On the day of the experiment, assay medium (Seahorse XF Base Medium supplemented with 2 mM L-glutamine, 1mM Pyruvate and 10 mM glucose) was freshly prepared. The cells were washed twice with assay medium and brought to a final volume of 175 μL per well. The XF96 plate was placed in a 37° C. incubator without CO2 for 30 minutes prior to loading the plate into the instrument. Injection of compounds during the assay included: the mitochondrial ATP Synthase inhibitor oligomycin (final concentration of 2 μM); the chemical uncoupler, FCCP (final concentration of 1 μM); and the Complex I inhibitors rotenone (final concentrations 2 μM) and phenformin (final concentration 1 mM) and Complex III inhibitor antimycin A (final concentrations of 2 μM). […] Activity of complex I was measured in permeabilized cells using XF PMP assay where complex I dependent OCR was measured by determining OCR in the presence of pyruvate and malate (as substrates for complex I) before and after addition of rotenone (complex I inhibitor)."}, "L3161C-ND1 cells": {"system": "L3161C-ND1 cells", "experiment": "Basal OCR in L3161C-ND1 versus L3161C-pBabe cells", "type": "cell-based, mouse", "conditions": "phenformin 24 hr", "method": "This experiment was repeated once. […] Experiments in e and f were preformed once.\nas §3"}, "L3161C-ND1 tumors": {"system": "L3161C-ND1 tumors", "experiment": "18FBnTP PET of L3161C-ND1 and L3161C-vector tumors", "type": "in vivo, mouse", "conditions": "125 mg/kg/day, 5 days", "method": "as §1, with “For other studies mice were treated with 125 mg/kg/day phenformin or 500 mg/kg/day metformin for 5 days; both drugs were delivered by oral gavage in the morning. Following imaging, mice were euthanized and tissue was harvested. For some experiments, lungs were fixed with 10% NBF overnight; for other experiments lung tumor nodules were rapidly dissected, snap frozen in liquid nitrogen and stored in −80° C. freezer.” left out\nas §2"}, "L3161C cells [5]": {"system": "L3161C cells", "experiment": "In vitro 18FBnTP uptake assay, L3161C", "type": "cell-based, mouse", "conditions": "8 μM oligomycin, 3 hr"}, "L3161C cells [6]": {"system": "L3161C cells", "experiment": "Viability of L3161C cells after acute treatment", "conditions": "oligomycin +/− FCCP, 3 hr"}}, "data": [{"smiles": "CN(C)C(=N)N=C(N)N", "note": "[metformin]", "values": [{"measurement": "inhibition of 18FBnTP uptake compared with phenformin", "setting": "L3161C lung tumors [1]; 500 mg/kg metformin vs 125 mg/kg phenformin, 5 days", "value": "slightly less inhibition"}, {"measurement": "18FBnTP uptake in lung tumors", "setting": "L3161C lung tumors [1]; 500 mg/kg/day oral gavage, 5 days, vs vehicle", "value": "significantly reduced"}, {"measurement": "apoptosis, cell death and tumor growth by CC3 and Ki67", "setting": "L3161C lung tumors [2]", "value": "neither metformin nor phenformin induced apoptosis, cell death or significantly altered tumor growth"}]}, {"smiles": "[H]/N=C(/N)N/C(=N/[H])NCCc1ccccc1", "note": "[phenformin]", "values": [{"measurement": "ΔΨ measured by TMRE staining", "setting": "L3161C cells [3]; short-term phenformin 3 hr", "value": "significantly reduced ΔΨ in a dose dependent manner"}, {"measurement": "cellular OXPHOS (OCR) by respirometry", "setting": "L3161C cells [4]", "value": "significant reduction of cellular OXPHOS"}, {"measurement": "apoptosis, cell death and tumor growth by CC3 and Ki67", "setting": "L3161C lung tumors [2]", "value": "neither metformin nor phenformin induced apoptosis, cell death or significantly altered tumor growth"}, {"measurement": "OXPHOS (basal OCR) in L3161C-ND1 cells vs vector alone", "setting": "L3161C-ND1 cells", "value": "maintained higher OXPHOS"}, {"measurement": "18FBnTP uptake in ND1 expressing L3161C tumors vs vector tumors", "setting": "L3161C-ND1 tumors", "value": "no loss"}]}, {"smiles": "CC[C@H]1/C=C/C=C/C[C@@H](C)[C@H](O)[C@@](C)(O)C(=O)[C@@H](C)[C@H](O)[C@@H](C)C(=O)[C@@H](C)[C@H](O)[C@@H](C)/C=C/C(=O)O[C@@H]2[C@H](C)[C@H](CC1)O[C@]1(CC[C@H](C)[C@H](C[C@@H](C)O)O1)[C@H]2C", "note": "[oligomycin]", "values": [{"measurement": "TMRE signal", "setting": "L3161C cells [3]; 8 μM oligomycin, 3 hr", "value": "significant increase"}, {"measurement": "18FBnTP uptake (gamma counter)", "setting": "L3161C cells [5]", "value": "significant increase"}, {"measurement": "cell viability", "setting": "L3161C cells [6]", "value": "did not affect cell viability"}]}, {"smiles": "C=C(C)[C@H]1Cc2c(ccc3c2O[C@@H]2COc4cc(OC)c(OC)cc4[C@@H]2C3=O)O1", "note": "[rotenone]", "values": [{"measurement": "18FBnTP uptake in lung tumors after acute treatment", "setting": "L3161C lung tumors [1]; single i.p. dose (0.25 mg/kg oligomycin; 0.5 mg/kg rotenone), imaged 3-4 hr after", "value": "significantly reduced"}]}]}
